Drawing on PubChem BioAssay AID1259422 (The Scripps Research Institute Molecular Screening Center, 2018), this text covers inhibition for two compounds.

Broadly, the inhibition is the drop in the measured response relative to a control, in per cent.

Only a part is listed here, and it is no random draw. Some results for these compounds are left out of this collection, so the calls shown say nothing about other tests. Active and inactive are the calls of the source. Cut-off read from the data, not from the text of the source: active = inhibition above about 32%; inactive = the rest.

The nature of this assay: TEAD-YAP interaction inhibition, primary screen, TEAD-YAP interaction inhibitor project, luminescence, HEK-TIYL cells (AID 1259422).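 Note: 0% = median of test compound wells and 100% = reference inhibitor wells.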 The settings on record: TEAD-Gal4/YAP UAS-luciferase luminescence, at 9.12 µM, hits give high values.
Regarding `O=C(c1ccco1)N(Cc1ccco1)C1CCN(CCc2cccs2)CC1`, the inhibition was inactive: 3.02%. Consider `CC(=O)N(Cc1cccnc1)C1CCN(CCc2cccs2)CC1`, for which the inhibition was inactive: -3.58%.
